From article PMC8301260 (Medicinal chemistry research : an international journal for …, 2016) come the findings set out here.

For this series, the system named is primary human PBM, human CEM, and Vero cells.
Turning to `Cc1ccc(NC(C#N)c2ccc(OCc3ccc(Cl)cc3Cl)cc2)cc1` (stereo not drawn) [Compound 2h, 2-[4-(2,4-Dichlorobenzyloxy)phenyl]-2-(4-toluidino)acetonitrile], the “toxicity in all the cell systems tested (in words)” value (“toxicity” below) is “highly toxic”. On to `Cc1cc(C)cc(NC(C(N)=O)c2c(Cl)cccc2Cl)c1` (stereo not drawn) [Compound 4, 2-(2,6-Dichlorophenyl)-2-(3,5-dimethylanilino)acetamide], for which the “toxicity” value is “highly toxic”. In the case of `NCC1(c2ccccc2)CCCN1C(=O)c1ccc(Br)cc1` (stereo not drawn) [Compound 10], the “toxicity” value is reported as “no toxicity”.
